Assay results as given in IntAct's records for PubMed 25006247.

B1: Apoptosis-associated speck-like protein containing a CARD (Homo sapiens), Q9ULZ3 (parent)
chain: MGRARDAILDALENLTAEELKKFKLKLLSVPLREGYGRIPRGALLSMDALDLTDKLVSFYLETYGAELTANVLRDMGLQEMAGQLQAATHQGSGAAPAGIQAPPQSAAKPGLHFIDQHRAALIARVTNVEWLLDALYGKVLTDEQYQAVRAEPTNPSKMRKLFSFTPAWNWTCKDLLLQALRESQSYLVEDLERS
partner: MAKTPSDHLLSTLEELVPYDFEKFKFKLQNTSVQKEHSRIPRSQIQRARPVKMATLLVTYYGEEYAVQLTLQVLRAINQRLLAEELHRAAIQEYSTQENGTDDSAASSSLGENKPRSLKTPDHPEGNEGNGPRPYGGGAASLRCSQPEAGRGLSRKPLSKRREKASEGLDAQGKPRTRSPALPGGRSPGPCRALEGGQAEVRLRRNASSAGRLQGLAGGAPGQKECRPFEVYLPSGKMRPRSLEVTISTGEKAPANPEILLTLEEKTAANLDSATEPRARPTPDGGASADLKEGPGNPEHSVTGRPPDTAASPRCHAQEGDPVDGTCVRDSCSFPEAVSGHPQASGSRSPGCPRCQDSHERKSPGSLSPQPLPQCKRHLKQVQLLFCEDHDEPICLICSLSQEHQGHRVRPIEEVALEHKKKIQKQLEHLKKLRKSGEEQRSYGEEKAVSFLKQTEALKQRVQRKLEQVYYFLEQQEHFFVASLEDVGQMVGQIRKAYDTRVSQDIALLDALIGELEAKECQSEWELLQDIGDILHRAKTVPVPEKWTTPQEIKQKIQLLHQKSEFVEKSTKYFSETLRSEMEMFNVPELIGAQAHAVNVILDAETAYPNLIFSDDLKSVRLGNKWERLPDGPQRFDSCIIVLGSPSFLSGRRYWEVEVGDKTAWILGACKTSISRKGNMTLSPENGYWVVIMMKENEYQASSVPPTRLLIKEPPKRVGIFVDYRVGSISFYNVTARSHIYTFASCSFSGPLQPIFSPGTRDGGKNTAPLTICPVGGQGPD

Variants of: B1
Settings: with mefv_human MEFV

Variant	effect of a mutation on the interaction
MGAARDAILDALENLTAEELKKFKLKLLSVPLREGYGRIPRGALLSMDALDLTDKLVSFYLETYGAELTANVLRDMGLQEMAGQLQAATHQGSGAAPAGIQAPPQSAAKPGLHFIDQHRAALIARVTNVEWLLDALYGKVLTDEQYQAVRAEPTNPSKMRKLFSFTPAWNWTCKDLLLQALRESQSYLVEDLERS [R3A]	with no effect
MGRARDAILAALENLTAEELKKFKLKLLSVPLREGYGRIPRGALLSMDALDLTDKLVSFYLETYGAELTANVLRDMGLQEMAGQLQAATHQGSGAAPAGIQAPPQSAAKPGLHFIDQHRAALIARVTNVEWLLDALYGKVLTDEQYQAVRAEPTNPSKMRKLFSFTPAWNWTCKDLLLQALRESQSYLVEDLERS [D10A]	decreasing interaction strength
MGRARDAILDALANLTAEELKKFKLKLLSVPLREGYGRIPRGALLSMDALDLTDKLVSFYLETYGAELTANVLRDMGLQEMAGQLQAATHQGSGAAPAGIQAPPQSAAKPGLHFIDQHRAALIARVTNVEWLLDALYGKVLTDEQYQAVRAEPTNPSKMRKLFSFTPAWNWTCKDLLLQALRESQSYLVEDLERS [E13A]	disrupting interaction strength
MGRARDAILDALENLTAAELKKFKLKLLSVPLREGYGRIPRGALLSMDALDLTDKLVSFYLETYGAELTANVLRDMGLQEMAGQLQAATHQGSGAAPAGIQAPPQSAAKPGLHFIDQHRAALIARVTNVEWLLDALYGKVLTDEQYQAVRAEPTNPSKMRKLFSFTPAWNWTCKDLLLQALRESQSYLVEDLERS [E18A]	with no effect
MGRARDAILDALENLTAEELAKFKLKLLSVPLREGYGRIPRGALLSMDALDLTDKLVSFYLETYGAELTANVLRDMGLQEMAGQLQAATHQGSGAAPAGIQAPPQSAAKPGLHFIDQHRAALIARVTNVEWLLDALYGKVLTDEQYQAVRAEPTNPSKMRKLFSFTPAWNWTCKDLLLQALRESQSYLVEDLERS [K21A]	disrupting interaction strength
MGRARDAILDALENLTAEELKKFKLKLLSVPLRAGYGRIPRGALLSMDALDLTDKLVSFYLETYGAELTANVLRDMGLQEMAGQLQAATHQGSGAAPAGIQAPPQSAAKPGLHFIDQHRAALIARVTNVEWLLDALYGKVLTDEQYQAVRAEPTNPSKMRKLFSFTPAWNWTCKDLLLQALRESQSYLVEDLERS [E34A]	with no effect
MGRARDAILDALENLTAEELKKFKLKLLSVPLREGYGAIPRGALLSMDALDLTDKLVSFYLETYGAELTANVLRDMGLQEMAGQLQAATHQGSGAAPAGIQAPPQSAAKPGLHFIDQHRAALIARVTNVEWLLDALYGKVLTDEQYQAVRAEPTNPSKMRKLFSFTPAWNWTCKDLLLQALRESQSYLVEDLERS [R38A]	decreasing interaction strength
MGRARDAILDALENLTAEELKKFKLKLLSVPLREGYGRIPAGALLSMDALDLTDKLVSFYLETYGAELTANVLRDMGLQEMAGQLQAATHQGSGAAPAGIQAPPQSAAKPGLHFIDQHRAALIARVTNVEWLLDALYGKVLTDEQYQAVRAEPTNPSKMRKLFSFTPAWNWTCKDLLLQALRESQSYLVEDLERS [R41A]	disrupting interaction strength
MGRARDAILDALENLTAEELKKFKLKLLSVPLREGYGRIPRGALLSMAALDLTDKLVSFYLETYGAELTANVLRDMGLQEMAGQLQAATHQGSGAAPAGIQAPPQSAAKPGLHFIDQHRAALIARVTNVEWLLDALYGKVLTDEQYQAVRAEPTNPSKMRKLFSFTPAWNWTCKDLLLQALRESQSYLVEDLERS [D48A]	disrupting interaction strength
MGRARDAILDALENLTAEELKKFKLKLLSVPLREGYGRIPRGALLSMDALALTDKLVSFYLETYGAELTANVLRDMGLQEMAGQLQAATHQGSGAAPAGIQAPPQSAAKPGLHFIDQHRAALIARVTNVEWLLDALYGKVLTDEQYQAVRAEPTNPSKMRKLFSFTPAWNWTCKDLLLQALRESQSYLVEDLERS [D51A]	disrupting interaction strength
MGRARDAILDALENLTAEELKKFKLKLLSVPLREGYGRIPRGALLSMDALDLTAKLVSFYLETYGAELTANVLRDMGLQEMAGQLQAATHQGSGAAPAGIQAPPQSAAKPGLHFIDQHRAALIARVTNVEWLLDALYGKVLTDEQYQAVRAEPTNPSKMRKLFSFTPAWNWTCKDLLLQALRESQSYLVEDLERS [D54A]	decreasing interaction strength
MGRARDAILDALENLTAEELKKFKLKLLSVPLREGYGRIPRGALLSMDALDLTDKLVSFYLEAYGAELTANVLRDMGLQEMAGQLQAATHQGSGAAPAGIQAPPQSAAKPGLHFIDQHRAALIARVTNVEWLLDALYGKVLTDEQYQAVRAEPTNPSKMRKLFSFTPAWNWTCKDLLLQALRESQSYLVEDLERS [T63A]	with no effect
MGRARDAILDALENLTAEELKKFKLKLLSVPLREGYGRIPRGALLSMDALDLTDKLVSFYLETYGAALTANVLRDMGLQEMAGQLQAATHQGSGAAPAGIQAPPQSAAKPGLHFIDQHRAALIARVTNVEWLLDALYGKVLTDEQYQAVRAEPTNPSKMRKLFSFTPAWNWTCKDLLLQALRESQSYLVEDLERS [E67A]	with no effect
MGRARDAILDALENLTAEELKKFKLKLLSVPLREGYGRIPRGALLSMDALDLTDKLVSFYLETYGAELTANVLADMGLQEMAGQLQAATHQGSGAAPAGIQAPPQSAAKPGLHFIDQHRAALIARVTNVEWLLDALYGKVLTDEQYQAVRAEPTNPSKMRKLFSFTPAWNWTCKDLLLQALRESQSYLVEDLERS [R74A]	with no effect
MGRARDAILDALENLTAEELKKFKLKLLSVPLREGYGRIPRGALLSMDALDLTDKLVSFYLETYGAELTANVLRDMGLQAMAGQLQAATHQGSGAAPAGIQAPPQSAAKPGLHFIDQHRAALIARVTNVEWLLDALYGKVLTDEQYQAVRAEPTNPSKMRKLFSFTPAWNWTCKDLLLQALRESQSYLVEDLERS [E80A]	with no effect
MGRARDAILDALENLTAEELKKFKLKLLSVPLREGYGRIPRGALLSMDALDLTDKLVSFYLETYGAELTANVLRDMGLQEMAGALQAATHQGSGAAPAGIQAPPQSAAKPGLHFIDQHRAALIARVTNVEWLLDALYGKVLTDEQYQAVRAEPTNPSKMRKLFSFTPAWNWTCKDLLLQALRESQSYLVEDLERS [Q84A]	with no effect
